# Measured values published in US8791123B2, “Substituted pyrazolo[1,5-a]pyrimidine compounds as Trk kinase inhibitors” (Array Biopharma, Inc., priority 2009, dated 2014).
# By UniProt entry, the sequences of proteins in these tests, tags left out. Residues count along the entry.
# UniProt P04629, 440-796: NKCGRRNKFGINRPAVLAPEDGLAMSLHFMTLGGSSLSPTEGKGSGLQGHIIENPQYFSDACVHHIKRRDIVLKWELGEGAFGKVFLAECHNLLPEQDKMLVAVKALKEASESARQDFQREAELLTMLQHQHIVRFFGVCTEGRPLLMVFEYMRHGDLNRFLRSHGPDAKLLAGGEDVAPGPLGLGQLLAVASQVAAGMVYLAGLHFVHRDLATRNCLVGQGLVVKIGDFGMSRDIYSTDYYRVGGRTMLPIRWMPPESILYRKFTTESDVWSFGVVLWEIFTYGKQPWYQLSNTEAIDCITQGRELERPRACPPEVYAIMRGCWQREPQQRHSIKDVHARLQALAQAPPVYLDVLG
# UniProt O60674, 808-1132: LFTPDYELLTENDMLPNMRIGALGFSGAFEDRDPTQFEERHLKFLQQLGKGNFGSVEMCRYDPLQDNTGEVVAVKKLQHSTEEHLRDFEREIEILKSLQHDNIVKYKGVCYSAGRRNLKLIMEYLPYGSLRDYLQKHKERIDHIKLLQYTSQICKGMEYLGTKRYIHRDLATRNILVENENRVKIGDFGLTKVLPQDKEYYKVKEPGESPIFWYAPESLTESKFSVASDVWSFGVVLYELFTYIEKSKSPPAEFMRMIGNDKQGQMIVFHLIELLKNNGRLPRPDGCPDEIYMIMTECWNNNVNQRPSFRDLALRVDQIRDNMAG
# Target: TrkA (histidine-tagged recombinant human TrkA, cytoplasmic domain) (Homo sapiens (Human), UniProt P04629)
# Experiment: TrkA ELISA Assay
# Type: biochemical
# Conditions: Table 1; ELISA, 500 μM ATP; read-out: TrkA Enzyme IC50
# Experimental: An enzyme-linked immunosorbant assay (ELISA) was used to assess TrkA kinase activity in the presence of inhibitors. Immulon 4HBX 384-well microtiter plates (Thermo part #8755) were coated with a 0.025 mg/mL solution of poly (Glu, Ala, Tyr; 6:3:1; Sigma P3899). […] The reaction mixture was removed from the plate by washing with PBS containing 0.1% (v/v) Tween 20. The phosphorylated reaction product was detected using 0.2 μg/mL of a phosphotyrosine specific monoclonal antibody (clone PY20) conjugated to horseradish peroxidase in conjunction with the TMB Peroxidase Substrate System (KPL). After the addition of 1M phosphoric acid, the chromogenic substrate color intensity was quantitated via absorbance at 450 nm.
row,Compound,IC50 [nM]
1,"O=C(O)C1CCN(C(=O)c2cnn3ccc(N4CCC[C@@H]4c4cc(F)ccc4F)nc23)CC1 [Example 11, (R)-1-(5-(2-(2,5-difluorophenyl)pyrrolidin-1-yl)pyrazolo[1,5-a]pyrimidine-3-carbonyl)piperidine-4-carboxylic acid]",777
2,"O=C(N[C@H]1CC[C@H](C(=O)O)CC1)c1cnn2ccc(N3CCC[C@@H]3c3cc(F)ccc3F)nc12 [Example 33, Trans-4-(5-((R)-2-(2,5-difluorophenyl)pyrrolidin-1-yl)pyrazolo[1,5-a]pyrimidine-3-carboxamido)cyclohexanecarboxylic acid]",1.5
3,"N#CCNC(=O)c1cnn2ccc(N3CCC[C@@H]3c3cc(F)ccc3F)nc12 [Example 39, (R)—N-(cyanomethyl)-5-(2-(2,5-difluorophenyl)pyrrolidin-1-yl)pyrazolo[1,5-a]pyrimidine-3-carboxamide]",0.7
4,"CS(=O)(=O)N1CCC(NC(=O)c2cnn3ccc(N4CCC[C@@H]4c4cc(F)ccc4F)nc23)CC1 [Example 44, (R)-5-(2-(2,5-difluorophenyl)pyrrolidin-1-yl)-N-(1-(methylsulfonyl)piperidin-4-yl)pyrazolo[1,5-a]pyrimidine-3-carboxamide]",1.5
5,"CS(=O)(=O)NCCNC(=O)c1cnn2ccc(N3CCC[C@@H]3c3cc(F)ccc3F)nc12 [Example 46, (R)-5-(2-(2,5-difluorophenyl)pyrrolidin-1-yl)-N-(2-(methylsulfonamido)ethyl)pyrazolo[1,5-a]pyrimidine-3-carboxamide]",3.3
6,"CC(C)(C#N)NC(=O)c1cnn2ccc(N3CCC[C@@H]3c3cncc(F)c3)nc12 [Example 69, (R)—N-(2-cyanopropan-2-yl)-5-(2-(5-fluoropyridin-3-yl)pyrrolidin-1-yl)pyrazolo[1,5-a]pyrimidine-3-carboxamide]",60.3
7,"O=C(NC1(C(=O)O)CC1)c1cnn2ccc(N3CCC[C@@H]3c3cc(F)ccc3F)nc12 [Example 84, (R)-1-(5-(2-(2,5-difluorophenyl)pyrrolidin-1-yl)pyrazolo[1,5-a]pyrimidine-3-carboxamido)cyclopropanecarboxylic acid]",21
8,"Cc1ncc(F)cc1[C@H]1CCCN1c1ccn2ncc(C(=O)N[C@H]3CC[C@H](O)CC3)c2n1 [Example 194, 5-((R)-2-(5-fluoro-2-methylpyridin-3-yl)pyrrolidin-1-yl)-N-((trans)-4-hydroxycyclohexyl)pyrazolo[1,5-a]pyrimidine-3-carboxamide]",4.7
9,"Cc1ncc(F)cc1[C@H]1CCCN1c1ccn2ncc(C(=O)N[C@H]3CC[C@@H](O)CC3)c2n1 [Example 195, 5-((R)-2-(5-fluoro-2-methylpyridin-3-yl)pyrrolidin-1-yl)-N-((cis)-4-hydroxycyclohexyl)pyrazolo[1,5-a]pyrimidine-3-carboxamide]",7.7
10,"CCc1ncc(F)cc1[C@H]1CCCN1c1ccn2ncc(C(=O)N[C@H]3CC[C@H](O)CC3)c2n1 [Example 199, 5-((R)-2-(2-ethyl-5-fluoropyridin-3-yl)pyrrolidin-1-yl)-N-((trans)-4-hydroxycyclohexyl)pyrazolo[1,5-a]pyrimidine-3-carboxamide]",3.6
11,"C[C@@H](NC(=O)c1cnn2ccc(N3[C@H](CO)CC[C@@H]3c3cncc(F)c3)nc12)C(F)(F)F [Example 212, 5-((2R,5S)-2-(5-fluoropyridin-3-yl)-5-(hydroxymethyl)pyrrolidin-1-yl)-N—((R)-1,1,1-trifluoropropan-2-yl)pyrazolo[1,5-a]pyrimidine-3-carboxamide]",38
12,"C[C@H](NC(=O)c1cnn2ccc(N3[C@H](CO)CC[C@@H]3c3cncc(F)c3)nc12)C(F)(F)F [Example 213, 5-((2R,5S)-2-(5-fluoropyridin-3-yl)-5-(hydroxymethyl)pyrrolidin-1-yl)-N—((S)-1,1,1-trifluoropropan-2-yl)pyrazolo[1,5-a]pyrimidine-3-carboxamide]",6.8
13,"CCc1cc(NC(=O)c2cnn3ccc(N4CCC[C@@H]4c4cc(F)cnc4OC)nc23)[nH]n1 [Example 243, (R)-N-(3-ethyl-1H-pyrazol-5-yl)-5-(2-(5-fluoro-2-methoxypyridin-3-yl)pyrrolidin-1-yl)pyrazolo[1,5-a]pyrimidine-3-carboxamide]",9

# Same assay, conditions: Table 2; read-out: TrkA IC50
row,Compound,IC50 [nM]
1,"Cc1ncc(F)cc1[C@H]1CCCN1c1ccn2ncc(C(=O)N[C@H]3CC[C@H](O)CC3)c2n1 [Example 194, 5-((R)-2-(5-fluoro-2-methylpyridin-3-yl)pyrrolidin-1-yl)-N-((trans)-4-hydroxycyclohexyl)pyrazolo[1,5-a]pyrimidine-3-carboxamide]",4.6

# Target: Human Jak2 kinase domain (Homo sapiens (Human), UniProt O60674)
# Experiment: Jak2 Inhibition Assay (Omnia kinase assay)
# Type: biochemical
# Conditions: read-out: Jak2 Enzyme IC50
# Experimental: The assays described in Examples C, D, E and F for the determination of JAK1, JAK2, JAK3 and Tyk2 kinase activity, respectively, utilized the Omnia® Kinase fluorescence peptide substrate-based technology (Invitrogen). […] The reactions were therefore read at excitation 360 nm and emission was measured at 485 nm every 50 seconds for 45 minutes using a PerkinElmer EnVision Multilabel Plate Reader.
# The final buffer conditions for each of the JAK1, JAK2, JAK3 and Tyk2 assays were as follows: 25 mM HEPES, pH 7.4, 10 mM MgCl2, 0.01% Triton X-100 and 1 mM DTT.
# Two-μL aliquots of these were transferred to a fresh plate for a ten-fold intermediate dilution with assay buffer. Five-μL aliquots of the diluted compounds were then transferred to 20-μL of assay mixtures described in Examples C, D, E and F for a final concentration of DMSO of 2%. […] For each plate, percent of control (POC) values were calculated for each well according to the following equation:
# [formula] • where • Xmax=Average Uninhibited Controls • Xmin=Average Background IC50's were estimated from the POC's using a standard 4-parameter logistic model:
# [formula] • where • A=Minimum Y (Bottom Asymptote) • B=Maximum Y (Top Asymptote) • C=EC50 • D=Slope Factor • X=Compound Concentration (nM) • Y=POC
# The IC50 is defined as the concentration of inhibitor at which the POC equals 50 for the fitted curve.
# Compounds of Formula I were screened for their ability to inhibit Jak2 using the general enzyme inhibition assay method, in which the assay mixture contained 500 μM ATP, 10 μM Omnia® Y7 peptide (Catalog # IVGN KNZ3071C, Invitrogen Corporation, Carlsbad, Calif.) and 4 nM Jak2 in a total volume of 20 μL. Human Jak2 kinase domain comprising amino acids 808-1132 was purchased from Invitrogen Corporation, Carlsbad, Calif. (catalog # IVGN PV4210).
row,Compound,IC50 [nM]
1,"O=C(N[C@H]1CC[C@H](C(=O)O)CC1)c1cnn2ccc(N3CCC[C@@H]3c3cc(F)ccc3F)nc12 [Example 33, Trans-4-(5-((R)-2-(2,5-difluorophenyl)pyrrolidin-1-yl)pyrazolo[1,5-a]pyrimidine-3-carboxamido)cyclohexanecarboxylic acid]",23.4
2,"CS(=O)(=O)N1CCC(NC(=O)c2cnn3ccc(N4CCC[C@@H]4c4cc(F)ccc4F)nc23)CC1 [Example 44, (R)-5-(2-(2,5-difluorophenyl)pyrrolidin-1-yl)-N-(1-(methylsulfonyl)piperidin-4-yl)pyrazolo[1,5-a]pyrimidine-3-carboxamide]",388
3,"NS(=O)(=O)N1CCC(NC(=O)c2cnn3ccc(N4CCC[C@@H]4c4cc(F)ccc4F)nc23)CC1 [Example 45, (R)-5-(2-(2,5-difluorophenyl)pyrrolidin-1-yl)-N-(1-sulfamoylpiperidin-4-yl)pyrazolo[1,5-a]pyrimidine-3-carboxamide]",195
4,"C[C@H](NC(=O)c1cnn2ccc(N3C[C@@H](O)C[C@@H]3c3cccc(F)c3)nc12)C(F)(F)F [Example 216, 5-((2R,4S)-2-(3-fluorophenyl)-4-hydroxypyrrolidin-1-yl)-N—((S)-1,1,1-trifluoropropan-2-yl)pyrazolo[1,5-a]pyrimidine-3-carboxamide]",670
